The values that follow are results of earlier work, collected in patent US20090054334A1, “Combinatorial improvement of bifunctional drug properties” (priority 2007, published 2009).

For the data set the following is noted: ConjuChem.

One may read the half-life as the time in which the quantity being followed falls by half. In the case of insulin, the half-life was 8 h.
